Data: patent publication US20110110924A1, “Resistin as a Marker and Therapeutic Target for Cardiovascular Disease” (priority 2004, published 2011)

Key:
[1] = system: resistin protein secretion by human macrophages; assay: Resistin protein secretion by primary human macrophages (ELISA); type: cell-based; settings: TNFα treatment of primary human macrophages
Description: (§1) Peripheral blood mononuclear cells were isolated from whole blood of healthy donors following apheresis and elutriation. Greater than 90% of these monocytes expressed CD14 and HLA-DR. Cells were plated in 24 well plates at a density of 10^6 cells per well, allowed to adhere for 4 hours, then washed with Dulbecco's Modified Eagles Medium (DMEM) and further cultured in 10% FBS in DMEM supplemented with 5 ng/ml GM-CSF (Sigma) to promote macrophage differentiation. All experiments were performed after overnight equilibration with macrophage serum free medium (Gibco/Invitrogen) supplemented with 5 ng/ml GM-CSF. […]
Resistin concentrations, in cell media and human plasma, were assessed with a commercially available ELISA (Linco) and normalized to cell protein. […] Direct comparison of standard curves generated by the Linco kit with another commercially available resistin ELISA (Biovendor) yielded high correlation (rho=0.99, p<0.001), except that the Biovendor results were approximately 30% lower than those determined with the Linco assay. […] Resistin levels in 40 plasma samples were measured using both Linco and Biovendor ELISA kits, with moderate correlation (rho=0.66). Levels of soluble TNFα Receptor-2 were measured using a commercially available immunoassay (R&D Systems). […]

[2] = system: resistin mRNA in primary human macrophages; assay: Resistin mRNA expression in primary human macrophages (real time PCR); type: cell-based; settings: TNFα treatment of primary human macrophages
Description: as §1, with “GM-CSF. Cells were treated as indicated with LPS (Sigma), aspirin (Sigma), SN50 and control peptide (Biomol), MG132, PD98059, SB20358 (Calbiochem), and TNFα (R&D Systems).” for “GM-CSF.”
RNA was isolated using RNeasy® Mini Kit (Qiagen), then subjected to DNAse digestion followed by reverse transcription (Invitrogen). mRNA transcripts were quantified by the dual-labeled fluorogenic probe method for real time PCR, using a Prism® 7900 thermal cycler and sequence detector (Perkin Elmer/ABI). […]
Primer and probe for TNFα was obtained from ABI. […] The fold change of the gene of interest expression relative to the vehicle treated group was expressed as 2^− δδ^CT, in which δδ CT equals the δCT of the compound treated group minus δCT of the chosen control group, which was normalized to 1.

With “TNFα: endotoxin-induced inflammatory cytokine (R&D Systems)” the “effect on resistin secretion” value [1] was “increased in parallel” and the “effect on resistin gene expression” value [2] was “induced”.
